The source of these data is US20160238591A1 (MIT, published 2016).

The target in experiment [1] is T1, CsgASpyTag amyloid fibrils (SpyTag-displaying curli amyloid fibrils) (Escherichia coli).
T1 construct: Extracellular amyloid fibril polymerised from many secreted subunits; Tested on live E. coli cells, cell-free, or freeze-dried and re-dispersed; also in mixed fibrils with other CsgA variants; The gene encodes the secretion signal; also called SpyTag-displaying amyloid fibrils; SpyTag-encoded fibrils
Kind of experiment: TEM, HRTEM, STEM after 30 minutes in 1x PBS at room temperature.

Experiment [2] has as its target T2, wild-type CsgA curli amyloid fibrils (Escherichia coli, UniProt P28307).
T2 construct: Control fibrils without a tag; also called CsgAwt; wild-type curli amyloid fibrils
Kind of experiment: TEM after mixing CdSe/CdS QD-SpyCatcher conjugates with wild-type curli fibrils (FIG. 1O).

B1: Cys2-SpyCatcher (other)
chain: MCCSYYHHHHHHDYDIPTTENLYFQGAMVDTLSGLSSEQGQSGDMTIEEDSATHIKFSKRDEDGKELAGATMELRDSSGKTISTWISDGQVKDFYLYPGKYTFVETAAPDGYEVATAITFTVNEQGQVTVNGKATKGDAHI
notes: Tested only as a conjugate on nanocrystals or carbon nanotubes, never as free protein; also called QD-SpyCatcher; CdSe/CdS QD-SpyCatcher conjugates
Regarding B1, the binding result in experiment [1] is given as “binds”; in experiment [2], “no binding”.
